Data on one molecule can be found in patent publication WO2003050283A2 (dated 2003).

This assay concerns the target T1, RNase A (bovine, UniProt P61823 27-150).
T1 construct: also called bovine RNase A
T1 sequence (looked up): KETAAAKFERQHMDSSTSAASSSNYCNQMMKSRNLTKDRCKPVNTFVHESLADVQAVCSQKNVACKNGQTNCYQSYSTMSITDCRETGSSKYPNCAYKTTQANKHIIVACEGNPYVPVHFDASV
The assay is described as follows: panning of chimeric phages on RNase A coated immunotubes.

B1: iMab130 displayed on phage as fusion with the g3 coat protein (designed binder)
chain: NVKLVEKGGNFVENDDDLKLTCRASGYAYTYTYMGWFRQAPNDDSTNVATIDSGGGGTLYGDSVKERFDIRRDKGSNTVTLSMDDLQPEDSAEYNCAAGGYELRDRTYGQRGQGTDVTVSS
B1: the binding result is listed as “no binding”.
